High-throughput results (PubChem)
Only some compounds are listed: those with a hit (about 2.5% of all), similar ones and a draw of the others.
ClpP mod = qHTS Assay for Activators of ClpP | ATP-dependent Clp protease proteolytic subunit (Bacillus subtilis (strain 168)), P80244 | purified B. subtilis ClpP, FRET peptide cleavage, 20 min | Potency, µM (series often up to 57.5 µM), for inactives: at the top dose activity change, negative = active | 1.9% of 340,000 active | AID 651965, 2013; active means well fitted falling curve with a large enough effect; inconclusive means small, poorly fitted or top-dose-only effect; inactive means no such curve, though single readings can be large or run the other way; further: potency means the concentration at half of the fitted maximal effect; the source files actives as falling curves though it sought activators and does not explain the sign; nearly all actives have a fitted effect of over 65% in size
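Purified B. subtilis ClpP, 10 microg/mL final in Tris/HCl pH8 with KCl, BSA, glycerol and Tween-20, cleaved an Abz/nitrotyrosine-quenched decapeptide. Fluorescence (ex 320, em 430) was read at 0 and 20 min at room temperature. Delta was normalized to 5.8 microM ADEP and DMSO/no-enzyme controls.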
miR-21 FLuc = raises the signal of a miR-21 reporter | HeLa miR-21 FLuc reporter, luciferase, 48 h | Potency, µM (doses to about 38.3 µM), without a hit: at the top dose reporter change, positive = more light | 340,000 tested, under 10 active | AID 2288; active = well fitted rising curve with a large enough effect; inconclusive = small, poorly fitted or top-dose-only effect; inactive = no such curve, though single readings can be large or run the other way;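 note: % of control where 0% means no effect; miR-21 action dims this reporter so a rising signal means less miR-21 action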
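HeLa cells stably expressing CMV-driven firefly luciferase with a downstream miR-21 binding sequence, endogenously expressing miR-21, were treated with titrations (up to about 40uM final) for 48 hours at 37 degree Celsius. Luciferase luminescence was read after lysis.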
TrxR1 inh = blocks rat thioredoxin reductase 1; O89049; recombinant rTrxR1, NADPH fluorescence consumption, selenite substrate; Potency, µM (series often up to 114 µM), inactives show at the highest dose activity change, negative = inhibition, most hits filed as inhibitors; 1% of 390,000 active; AID 588453; further: potency means the concentration at half of the fitted maximal effect; on the % scale 0 is the no-effect control and ±100 the full control effect; nearly all actives have a fitted effect of over 65% in size
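Rat TrxR1 (90 nM in the dispensed reagent) was pre-reduced with 400 uM NADPH for 5 min at room temperature, then incubated with compound for 15 min. After 400 uM selenite was added, NADPH fluorescence (Ex 340/Em 450 nm) was followed for 8 min.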
TrxR1 substrate = substrates of rat thioredoxin reductase 1; purified TrxR1 substrate turnover, NADPH consumption readout; O89049; Potency, µM (series often up to 114 µM), inactives show at the top dose activity change, negative = substrate turnover; 0.01% of 390,000 active; further: potency means the concentration at half of the fitted maximal effect; on the % scale 0 is the no-effect control and ±100 the full control effect; nearly all actives have a fitted effect of over 50% in size
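Rat TrxR1, dispensed at 90 nM, was prereduced with 400 uM NADPH (final) for 5 min at ~22 deg C, then incubated with compound 15 min before 400 uM selenite. A first-read NADPH fluorescence drop versus no-compound background flagged substrates.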
Anesthetic bind = binds horse apoferritin like a general anesthetic | 0.074% of 350,000 active | Potency, µM (highest dose often 77.5 µM), without a hit: at the top dose activity change, negative = displacement, usual class: inhibitors | P02791 | apoferritin/1-aminoanthracene competitive binding, fluorescence; further: potency means the concentration at half of the fitted maximal effect; on the % scale 0 is the no-effect control and ±100 the full control effect; nearly all actives have a fitted effect of over 20% in size
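In PBS, apoferritin at 10 uM is loaded with 1-AMA from a 50% saturated solution. After 10 min of compound exposure at ambient temperature, reduced 535 nm fluorescence indicates probe displacement.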
* = called active by the depositor; u = inconclusive; x = no result given; [ ] = remark or other dose. Unless noted, the call rests on the fitted dose curve; in most records, active means well fitted curve in the direction sought with a large enough effect; inconclusive means small, poorly fitted or top-dose-only effect, or another doubt; inactive means no such curve, though single readings can be large; an effect the other way counts as inactive or inconclusive.

Sequences of proteins named here, by UniProt entry; tags and fusion partners are left off.
ATP-dependent Clp protease proteolytic subunit (Bacillus subtilis (strain 168)), P80244, UniProt P80244, whole entry, looked up: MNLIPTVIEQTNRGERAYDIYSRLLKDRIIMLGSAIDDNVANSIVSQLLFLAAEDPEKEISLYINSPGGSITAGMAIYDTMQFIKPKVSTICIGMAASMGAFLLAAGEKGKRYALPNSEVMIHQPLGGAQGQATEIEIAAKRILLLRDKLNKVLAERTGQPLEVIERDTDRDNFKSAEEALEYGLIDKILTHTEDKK

Below each SMILES – ClpP mod, miR-21 FLuc, TrxR1 inh, TrxR1 substrate, Anesthetic bind
> O=C(CNC(=O)c1ccco1)Nc1cc(Cl)ccc1N1CCOCC1
→ 28µM*, -10%, 32%[57.1 µM], 10%[57.1 µM], -10%
> COc1ccc(CCNC(=O)C(=O)NCC(c2ccco2)S(=O)(=O)c2ccccc2)cc1OC (configuration not stated)
→ 0%, -1%, -2%[57.1 µM], 3%[57.1 µM], -2%
> Cc1ccc(F)cc1-c1ccc(C(=O)N=C(N)N)o1
→ x, x, x, x, -9%
> C=CCOc1ccc(C2OC34CCCCC3C(C#N)(C#N)C2(C#N)C(=N)O4)cc1 (configuration not stated)
→ 22µM*, -1%, 7%[57.1 µM], 62%[57.1 µM], 251%
> CSc1ccc(CCNC(=O)CCc2c(C)nc3c4cccnc4nn3c2C)cc1
→ 4%, 15%, -2%, 10%, -12%
> CCOC(=O)c1sc2nc(CC(=O)OC)nc(NCc3ccc(Cl)cc3)c2c1C
→ 14µM*, 1%, 34%, 49%, -17%
> COc1ccc(Cl)cc1NC(=O)C1CCN(S(=O)(=O)c2ccc3c(c2)CCCN3C(=O)C2CCC2)CC1
→ 1%, -5%, 18%[57.1 µM], 1%[57.1 µM], 3%
> COCc1cc(=O)[nH]c2cc(NC(=O)C3CC3)c(C)cc12
→ 20µM*, -3%, -14%, 11%, -1%
> COc1cc(NC(=O)C(CC(C)C)N2Cc3ccccc3C2=O)cc(OC)c1 (configuration not stated)
→ -3%, -2%, 3%, -7%, -11%
> CCOc1ccc(N2C(=O)CC(Sc3ccccc3C(=O)O)C2=O)c([N+](=O)[O-])c1 (configuration not stated)
→ 0%, -3%, 28µM*, 5%, -8%

Part of the list above, showing only Anesthetic bind.
Molecule | Anesthetic bind
O=C(CNC(=O)c1ccco1)Nc1cc(Cl)ccc1N1CCOCC1 | -10%
Cc1ccc(F)cc1-c1ccc(C(=O)N=C(N)N)o1 | -9%
COCc1cc(=O)[nH]c2cc(NC(=O)C3CC3)c(C)cc12 | -1%
CCOc1ccc(N2C(=O)CC(Sc3ccccc3C(=O)O)C2=O)c([N+](=O)[O-])c1 (configuration not stated) | -8%

Next structures
Below each SMILES – ClpP mod, miR-21 FLuc, TrxR1 inh, TrxR1 substrate, Anesthetic bind
> O=C(O)c1ccccc1SC1CC(=O)N(c2cccc3ccccc23)C1=O (configuration not stated)
→ x, 7%, 20µM*, 15%, 29%
> COc1ccc(-c2nc(CSc3nncn4c3cc3sccc34)c(C)o2)cc1OC
→ -2%, -6%, 8%, -3%, -9%
> CCOc1ccc(NC(=O)C(c2ccccn2)N(C(=O)CCl)c2ccc(OCC)cc2)cc1 (configuration not stated)
→ -8%, -44%, 79µM*, -6%, 1%
> Cc1ccc(NC(=O)CSC2=C(C#N)C(c3ccc4c(c3)OCO4)C3=C(CCCC3=O)N2)c(C)c1 (configuration not stated)
→ -2%, 12%, 28µM*, -4%, -7%
> Cn1c(=O)c2c(nc(NCc3ccccc3)n2Cc2ccccc2)n(C)c1=O
→ 0%, 6%, 1%, 2%, -14%
> Cn1c(=O)c2c(nc(NCC3CCCO3)n2Cc2ccccc2)n(C)c1=O (configuration not stated)
→ 28µM*, -10%, 14%, 5%, -7%
> COc1cc2c(cc1OC)C1=C(C#N)COCN1CC2
→ -25%, -10%, 13µM*, 20%, 36%
> CCc1ccc(CNC(=O)CN2C(=O)CCn3nc(-c4cn(C)c5ccccc45)cc32)cc1
→ -8%, 2%, 28%[57.1 µM], 1%[57.1 µM], -8%
> CCCCCCCCCCCCCCCC[n+]1ccc(C)cc1
→ -1%, x, -29%, -10%, x
> CCCN1CCN(C(=O)c2oc3ccccc3c2NC(=O)COc2ccc(OC)cc2)CC1
→ -1%, 0%, 22µM*, 5%, -3%

More structures follow:
Below each SMILES – ClpP mod, miR-21 FLuc, TrxR1 inh, TrxR1 substrate, Anesthetic bind
> CCn1c(SCC(N)=O)nnc1-c1ccc(S(=O)(=O)N2CCN(C)CC2)cc1
→ 32µM*, -5%, 17%, 16%, 2%
> Cc1ccc(C)c(Cc2c(C)nc3c(C(=O)N4CCOCC4)cnn3c2C)c1
→ 28µM*, -2%, 23%, 98%, u
> Cc1ccccc1Cc1c(C)nc2c(C(=O)NCc3ccco3)cnn2c1C
→ 32µM*, 0%, u, 79%, u
> CCOC(=O)N1CCN(C(=O)c2cnn3c(C)c(Cc4ccc(C)cc4)c(C)nc23)CC1
→ u, -7%, -9%, 42%, -10%
> CCC(=O)Nc1ccc(CC)cc1-c1nc2ccccc2n(CC(=O)Nc2cccc(Cl)c2)c1=O
→ -1%, -1%, 8%, -2%, -5%
> Cc1cc(-c2cc(-c3ccc(Cl)cc3)on2)nc(NCC2CC2)n1
→ 14µM*, 5%, 18%, 3%, 1%
> Cc1nn(Cc2ccccc2)c(C)c1N
→ 28µM*, -13%, 12%, -2%, 2%
